Binding of CDR-mutated scFvs to a peptide of the spike HR2 region

Binding partner: SARS-CoV-2 spike HR2 peptide, sequence PDVDLGDISGINAS.

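The starting antibody came from a phage panning campaign against this peptide. Library AAYL50 holds single substitutions and randomly drawn double and triple substitutions in the CDRs. AlphaSeq pools MATa yeast showing the antibodies with MATalpha yeast showing the peptide. After mating in shaken culture at 30 °C for 16 h, diploids were selected and their barcode pairs sequenced. Scores were corrected for input abundance and mapped to Kd with protein pairs of known affinity run in the same pool. There are three technical replicates.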

Ab-14 is the parent antibody, in scFv form: VH, then a 15-residue (Gly4Ser)3 linker, then VL. The heavy chain is unchanged in all variants.
VH: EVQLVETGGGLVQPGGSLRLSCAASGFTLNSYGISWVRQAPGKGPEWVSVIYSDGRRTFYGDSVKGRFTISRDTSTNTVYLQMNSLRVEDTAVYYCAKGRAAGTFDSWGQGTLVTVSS
VL: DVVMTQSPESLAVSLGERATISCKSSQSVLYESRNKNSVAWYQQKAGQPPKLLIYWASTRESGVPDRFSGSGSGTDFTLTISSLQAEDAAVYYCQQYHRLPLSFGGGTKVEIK

Each variant's VL is given in full. Affinities are written as log10 Kd with Kd in nM; a lower number is a better binder. Replicates are averaged; those with no signal do not enter the mean. An entry "nd" has no value in the source: the pair was not observed among the diploids in that replicate. This suggests poor binding but is not conclusive. The list is sorted by this average, lowest first, undetected variants last. Nonspecific signal, from three strains lacking the peptide, appeared in 18% of pairings of library AAYL50, centred on 4.19 (5% of these signals below 2.99); values are not corrected for it. For each scFv, signals with the empty controls are counted beside the result, with their mean in brackets.

VL | log10 Kd (nM) by replicate | mean, log10 nM | empty controls
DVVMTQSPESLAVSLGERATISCKSSQSVLTESRNENSVAWYQQKAGQPPKLLIYWASTRESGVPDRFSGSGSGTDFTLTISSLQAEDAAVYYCLQYHRLPLSFGGGTKVEIK | 0.11 0.38 0.09 | 0.19 | 4/9 (4.64)
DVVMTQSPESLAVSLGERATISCKVSQSVLYESRNCNSVAWYQQKAGQPPKLLIYWASTRESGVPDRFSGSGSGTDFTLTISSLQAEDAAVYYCQQYARLPLSFGGGTKVEIK | 0.26 0.52 0.45 | 0.41 | 5/9 (3.92)
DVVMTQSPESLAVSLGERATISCKSSQSVLYESSNKNSVAWYQQKAGQPPKLLIYWASTRESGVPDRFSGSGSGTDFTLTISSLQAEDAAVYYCQRYHRAPLSFGGGTKVEIK | 0.32 0.52 0.40 | 0.41 | 3/9 (4.98)
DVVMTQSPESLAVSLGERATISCKSSQSVLYESRNKNSVAWYQQKAGQPPKLLIYSASTVYSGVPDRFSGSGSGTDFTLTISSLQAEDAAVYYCQQYHRLPLSFGGGTKVEIK | 0.58 0.82 0.76 | 0.72 | 1/9 (3.75)
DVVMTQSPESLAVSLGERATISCKWSGSVLYESRNKNSVAWYQQKAGQPPKLLIYWLSTRESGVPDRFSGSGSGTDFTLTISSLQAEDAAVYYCQQYHRLPLSFGGGTKVEIK | 1.97 2.24 2.14 | 2.11 | 2/9 (4.39)
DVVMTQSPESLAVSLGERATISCKSSQSMLYESRNHNSVAWYQQKAGQPPKLLIYWASTRESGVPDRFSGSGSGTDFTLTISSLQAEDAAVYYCQQYHRLPKSFGGGTKVEIK | 3.08 nd nd | 3.08 | 0/9
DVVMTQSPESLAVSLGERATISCHSSQSVLYESRNKNSVAWYQQKAGQPPKLLIYWASTRESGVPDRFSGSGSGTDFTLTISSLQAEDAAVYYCEQYHRLPLSFGGGTKVEIK | nd 3.39 3.16 | 3.27 | 2/9 (4.31)
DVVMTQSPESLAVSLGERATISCKSSTSVLYESRNKNSVAWYQQKAGQPPKLLIYWQSTRESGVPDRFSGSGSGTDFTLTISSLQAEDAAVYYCLQYHRLPLSFGGGTKVEIK | nd nd 3.51 | 3.51 | 2/9 (3.58)
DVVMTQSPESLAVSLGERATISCKSSQSVLYESRNKNSVAWYQQKAGQPPKLLIYWHSTRESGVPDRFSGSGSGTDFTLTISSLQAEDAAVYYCQQYHRLPDQFGGGTKVEIK | 4.10 nd nd | 4.10 | 0/9
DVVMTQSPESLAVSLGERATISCKSSQSVLTESRNKNSVAWYQQKAGQPPKLLIYWASTRVSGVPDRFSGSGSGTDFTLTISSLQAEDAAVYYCQQYHRLTLSFGGGTKVEIK | nd 4.12 nd | 4.12 | 1/9 (3.46)
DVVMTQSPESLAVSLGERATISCKSSQSVLYESRTKNSVAWYQQKAGQPPKLLIYWASKRESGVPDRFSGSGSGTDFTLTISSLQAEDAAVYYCQMYHRLPLSFGGGTKVEIK | 5.16 3.12 nd | 4.14 | 5/9 (4.52)
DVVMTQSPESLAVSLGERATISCKSSQSVPYESRNKNSGAWYQQKAGQPPKLLIYWQSTRESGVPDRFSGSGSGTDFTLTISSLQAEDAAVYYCQQYHRLPLSFGGGTKVEIK | 5.40 3.81 3.66 | 4.29 | 3/9 (4.60)
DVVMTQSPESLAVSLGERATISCKSSQHVLYESRNKNSCAWYQQKAGQPPKLLIYWASARESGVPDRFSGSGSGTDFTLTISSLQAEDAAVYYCQQYHRLPLSFGGGTKVEIK | nd nd nd | nd | 1/9 (3.43)
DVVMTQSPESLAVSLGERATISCKSSQIVLYESRNKNYVAWYQQKAGQPPKLLIYWASTRESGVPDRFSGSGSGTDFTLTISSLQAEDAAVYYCQQYHRLELSFGGGTKVEIK | nd nd nd | nd | 5/9 (3.91)
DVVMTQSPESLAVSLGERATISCKSSQSYLYESRNKNSVAWYQQKAGQPPKLLIYWAKTRESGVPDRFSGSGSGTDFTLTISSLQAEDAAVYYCQQYHRLRLSFGGGTKVEIK | nd nd nd | nd | 0/9
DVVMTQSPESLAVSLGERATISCKSSQSVLYESRNKNSPAWYQQKAGQPPKLLIYYTSTRESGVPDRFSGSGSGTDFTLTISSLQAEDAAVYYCQQYHRLPLSFGGGTKVEIK | nd nd nd | nd | 1/9 (3.42)
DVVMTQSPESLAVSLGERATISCKSSQSVLYESRQKNSVAWYQQKAGQPPKLLIYWASTRESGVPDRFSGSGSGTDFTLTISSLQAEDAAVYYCQQYHRRWLSFGGGTKVEIK | nd nd nd | nd | 0/9
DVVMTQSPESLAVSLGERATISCKSSQSVLYESRNKNSVAWYQQKAGQPPKLLIYWASNHESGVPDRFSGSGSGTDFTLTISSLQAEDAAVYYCQDYHRLPLSFGGGTKVEIK | nd nd nd | nd | 0/9

Picked from the list: the 2 lowest averages where every replicate gave a value.

VL | log10 Kd (nM) by replicate | mean, log10 nM | empty controls
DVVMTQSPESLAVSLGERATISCKSSQSVLTESRNENSVAWYQQKAGQPPKLLIYWASTRESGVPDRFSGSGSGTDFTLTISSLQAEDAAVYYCLQYHRLPLSFGGGTKVEIK | 0.11 0.38 0.09 | 0.19 | 4/9 (4.64)
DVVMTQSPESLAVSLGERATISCKVSQSVLYESRNCNSVAWYQQKAGQPPKLLIYWASTRESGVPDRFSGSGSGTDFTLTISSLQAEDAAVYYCQQYARLPLSFGGGTKVEIK | 0.26 0.52 0.45 | 0.41 | 5/9 (3.92)

Parent in this assay: reference entry 0.65, copy in this library 1.68.

The measurements come from Engelhart et al. 2022 (doi:10.1038/s41597-022-01779-4) through the FLAb antibody collection.